# From US20050192547A1, “Combinations of antiseptic and antibiotic agents containing medical devices” (priority 2002, published 2005)
# Like-named read-outs stand apart in the source and are kept apart here.
# Tested on: Pseudomonas aeruginosa
smiles,measurement,setting,value
"O=[N+]([O-])[O-].O=[N+]([O-])[O-].O=[N+]([O-])[O-].[Bi+3] [Bismuth Nitrate, bismuth nitrate]",Zones of Inhibition Against Pseudomonas aeruginosa,catheter treated with 2% Bismuth Salt,0 mm
same,Zones of Inhibition Against Pseudomonas aeruginosa,catheter treated with 2% Bismuth Salt + 3% Minocycline,15 mm
